Test results reported in PMC10814725, “In Vitro Anti-Inflammatory Study of Limonoids Isolated from Chisocheton Plants” (Current Issues in Molecular Biology, 2024).

Assays:
Format in all cases: cell-based, human
TNF-α = assay: ELISA of TNF-α production in LPS-stimulated THP-1 cells; settings: THP-1 CC50 / TNF-α IC50
MCP-1 = assay: ELISA of MCP-1 production in LPS-stimulated THP-1 cells; settings: THP-1 CC50 / MCP-1 IC50
Experimental: (§1) The logarithmic growth phase of THP-1 cells was achieved by seeding in 96-well plates at a density of 5 × 10^4 cells/well and differentiated for 24 h in the presence of PMA (0.5 μM solution in medium). After 24 h of incubation, the culture medium was removed from the 96-well plate and the cells were washed with PBS. […] The cells were pretreated with 17 limonoids at the corresponding concentration for 1 h, followed by the addition of LPS (10 ng/mL) and then incubation at 37 °C for 18 h. Finally, 50 μL of each culture supernatant solution was taken to determine the concentrations of IL-6, MCP-1, and IL-1β using the corresponding commercially available human ELISA kits following the manufacturer’s instructions. The analyte concentration in the supernatant was measured in pg/mL, and the inhibition level was expressed as a fold change compared to the LPS (−) control group. To determine the IC50 value, the dose-response data were normalized to the LPS-stimulated-only group, and the percentage of inhibition was calculated using the following formula: % Inhibition=(Absorbance of LPS+ control−Absorbance of compound treatment with LPS)/(Absorbance of LPS+ control−Absorbance of LPS− control)×100
(§2) Furthermore, the % inhibition data were interpolated into linear equations to determine the IC50 values.

IL-6 = assay: ELISA of IL-6 production in LPS-stimulated THP-1 cells; settings: THP-1 CC50 / IL-6 IC50
Experimental: as §1, §2

## C[C@@H]1C[C@H]2[C@@H]3CCC4=CC(=O)C=C[C@]4(C)[C@@]3(F)[C@@H](O)C[C@]2(C)[C@@]1(O)C(=O)CO [Dex, dexamethasone, reference compound]
TNF-α
  TNF-α SI (selectivity index, CC50/IC50): 13.01
MCP-1
  MCP-1 SI (selectivity index, CC50/IC50): 56.46
IL-6
  IL-6 SI (selectivity index, CC50/IC50): 39.20
